Active and inactive are the calls of the source. The calls are words filed in the database; no cut-off is given here.
Key:
[1] = biological target: T1, G-protein coupled bile acid receptor 1 (Homo sapiens) (UniProt Q8TDU6); test: Agonist activity at GP-BAR1 in human THP1 cells assessed as increase in cAMP level at 10 uM by enzyme immunoassay; format: functional, cell-based; conditions: THP-1
T1 sequence (whole entry): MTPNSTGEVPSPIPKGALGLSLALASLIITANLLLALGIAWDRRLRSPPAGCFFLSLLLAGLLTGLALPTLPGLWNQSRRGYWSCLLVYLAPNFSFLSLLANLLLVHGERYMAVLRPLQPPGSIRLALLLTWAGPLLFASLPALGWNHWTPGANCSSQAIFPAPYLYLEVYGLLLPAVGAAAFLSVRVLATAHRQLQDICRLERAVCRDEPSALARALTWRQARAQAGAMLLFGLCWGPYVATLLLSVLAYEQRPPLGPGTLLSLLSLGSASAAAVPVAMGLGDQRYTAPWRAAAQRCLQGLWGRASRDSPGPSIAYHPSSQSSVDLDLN
Outline: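 THP-1 monocytes serum-starved overnight, then stimulated 30 min at 10 μM, with forskolin 10 μM as reference. cAMP measured by direct cAMP enzyme immunoassay. Three experiments, mean ± SE.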

[2] = biological target: T2, Bile acid receptor (Homo sapiens) (UniProt Q96RI1); test: Agonist activity at FXR in human HepG2 cells assessed as increase in OSTalpha mRNA expression at 10 uM by RT-PCR method; format: cell-based
T2 sequence (whole entry): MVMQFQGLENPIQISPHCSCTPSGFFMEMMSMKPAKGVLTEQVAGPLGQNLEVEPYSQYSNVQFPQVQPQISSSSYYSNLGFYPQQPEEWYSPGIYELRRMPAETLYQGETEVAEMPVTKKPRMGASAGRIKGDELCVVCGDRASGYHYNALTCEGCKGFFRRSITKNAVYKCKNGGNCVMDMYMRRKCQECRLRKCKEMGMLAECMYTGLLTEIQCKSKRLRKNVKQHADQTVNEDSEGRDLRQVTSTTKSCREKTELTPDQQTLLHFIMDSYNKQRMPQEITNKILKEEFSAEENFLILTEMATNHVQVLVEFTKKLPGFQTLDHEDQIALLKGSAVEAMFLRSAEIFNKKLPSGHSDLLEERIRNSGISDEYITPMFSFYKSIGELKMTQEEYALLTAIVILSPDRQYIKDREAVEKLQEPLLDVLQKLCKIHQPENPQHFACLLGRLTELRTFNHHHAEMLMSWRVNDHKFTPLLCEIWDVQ
Outline: (§1)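 HepG2 cells treated at 10 μM. TRIzol RNA was DNase-treated and reverse transcribed with random primers, then SYBR real-time PCR run in triplicate (40 cycles, 95 °C/60 °C). Values normalized to GAPDH and expressed relative to untreated cells set to 1.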

[3] = biological target: T2, Bile acid receptor (Homo sapiens); test: Agonist activity at FXR in human HepG2 cells assessed as increase in BSEP mRNA expression at 10 uM by RT-PCR method; format: cell-based; outline: as §1
[4] = biological target: T2, Bile acid receptor (Homo sapiens); test: Agonist activity at FXR in human HepG2 cells assessed as increase in SHP mRNA expression at 10 uM by RT-PCR method; format: cell-based; outline: as §1

Row | Compound | Activity [1] | Activity [2] | Activity [3] | Activity [4]
1 | C[C@H](CCCOS(=O)(=O)[O-])[C@H]1CC[C@H]2[C@@H]3[C@H](O)C[C@@H]4CCCC[C@]4(C)[C@H]3CC[C@]12C.[Na+] | inactive |  |  | 
2 | CC[C@@H]1[C@H](O)[C@@H]2[C@H](CC[C@]3(C)[C@@H]([C@H](C)CCCO)CC[C@@H]23)[C@@]2(C)CC[C@@H](O)C[C@@H]12 |  | inactive | inactive | inactive

— ChEMBL document CHEMBL3351323, “Exploitation of cholane scaffold for the discovery of potent and selective farnesoid X receptor (FXR) and G-protein coupled bile acid receptor 1 (GP-BAR1) ligands” (J Med Chem, 2014)
